In US6265438A, “Vitamin compatible micronutrient supplement” (Heritage Technologies, LLC, priority 1999, dated 2001):

Assays:
[1] = 90% humidity, 140 hours

basic ferrous chloride
Water solubility (Water solubility): about 500 mg per liter

tribasic zinc chloride
Hygroscopicity (in words) [1]: zero weight gain | Water solubility: about 23 mg of zinc per liter

Like-named read-outs stand apart in the source and are kept apart here.
